# Laboratory results published in IntAct's records for PubMed 20880835.
# B1: Eukaryotic translation initiation factor 4E-binding protein 1 (Homo sapiens), Q13541 (parent)
# chain: MSGGSSCSQTPSRAIPATRRVVLGDGVQLPPGDYSTTPGGTLFSTTPGGTRIIYDRKFLMECRNSPVTKTPPRDLPTIPGVTSPSSDEPPMEASQSHLRNSPEDKRAGGEESQFEMDI
# Variants of: B1
# Conditions: with if4e_human EIF4E
row,Variant,effect of a mutation on the interaction
1,K57E;E61G,decreasing interaction
2,N64S,decreasing interaction
3,R63Q,decreasing interaction
4,E61K,decreasing interaction
5,M60T,decreasing interaction strength
6,M60E,decreasing interaction strength
7,M60A,decreasing interaction strength
8,D55S,decreasing interaction
9,K57E,decreasing interaction
